Measured values: patent US8435949B2, “Pheromones and the luteinizing hormone for inducing proliferation of neural stem cells and neurogenesis” (Stem Cell Therapeutics Corp., priority 2004, dated 2013)

Key:
[1] = tested on: neural stem cells in the SVZ; assay: Infusion into the lateral ventricle by osmotic pump; BrdU positive (proliferating) cells counted in the SVZ; format: in vivo, mice; settings: for proliferation in the SVZ as compared to the control group: LH or hCG infusion vs vehicle alone, Example 5, present tense
Method: (§1) To examine the number of progenitor cells in the SVZ after treatment, bromodeoxyuridine (BrdU) injections were used to label these cells. Animals received BrdU injections (120 mg/kg, i.p., dissolved in 0.007% NaOH in phosphate buffer) every 2 hours for a 10 hour period. Each injection of BrdU will only label proliferating cells in the &phase and the purpose of having a series of BrdU injection is to ensure the continuing availability of BrdU for full incorporation (Morshead and van der Kooy, 1992).
The sections were post-fixed with acetone for 30 seconds at room temperature and washed with PBS. For BrdU staining, the tissue was treated with 1M HCl for 22 minutes at 60° C. to denature cellular DNA. Sections were then incubated for 24 hours at room temperature in primary antibody (rat anti-BrdU, 1:50) diluted in 0.3% PBS-T containing 10% NGS, washed with PBS, and then incubated with goat-anti-rat secondary antibodies conjugated to biotin (1:200) for 1 hour at room temperature. After rinsing with ddH2O, sections were mounted with Fluorosave, because staining was visualized with CY3-Streptavodin, and viewed with a Zeiss Axiophot fluorescence microscope.
A one-in-ten series of coronal sections (14 μm) from the rostral tip of the lateral ventricle to caudal most aspect of the ventricles (total 10 sections) were collected. BrdU-positive cells were then counted in the defining ependymal-subependymal layer.
(§2) Sixteen 8-week-old CD-1 mice (Charles-River, Laval, Quebec, Canada) were anesthetized with sodium pentobarbital (120 mg/kg, i.p.) and implanted with osmotic pumps (Alzet 1007D; Alza, Palo Alto, Calif.). The cannulas were located in the right lateral ventricle (anteroposterior +0.2 mm, lateral +0.8 mm to bregma, and dorsoventral 2.5 mm below dura with the skull leveled between lambda and bregma). LH (33 μg/ml human LH derived from the pituitary; the National hormone and peptide program, University of California Los Angeles, Calif., USA) was dissolved in 0.9% saline containing 1 mg/ml mouse serum albumin (Sigma). Each animal was infused for 6 d with either vehicle alone or LH at a flow rate of 0.5 μl/hr, resulting in a delivery of 400 ng/d of LH.

neural stem cells = assay: Neural stem cell culture: secondary sphere formation from dissociated primary spheres (self-renewal); format: cell-based, mice
Method: Generation and differentiation of spheres from embryonic and adult forebrain were performed as described previously with minor modifications (Reynolds and Weiss, 1992; Reynolds et al., 1992). Briefly, striato-pallidum complexes were removed from mouse embryos at E14 and collected into PBS containing 0.6% glucose, penicillin (50 U/ml), and streptomycin (50 U/ml; both from Life Technologies, Gaithersburg, Md.) and then transferred into the standard culture medium composed of DMEM-F-12 (1:1), glucose (0.6%), glutamine (2 mM), sodium bicarbonate (3 mM), HEPES buffer (5 mM), insulin (25 μg/ml), transferrin (100 μg/ml), progesterone ([…]), putrescine (60 μM), and selenium chloride (30 nM) (all from Sigma, St. Louis, Mo., except glutamine from Life Technologies) For adult neural stem cell cultures, medial and lateral portions of the lateral ventricle subependyma from the adult brain were dissected from both hemispheres, pooled together, subsequently cut into 1 mm^2 fragments, and transferred into the standard culture medium containing 1.33 mg/ml trypsin, 0:67 mg/ml hyaluronidase, and 0.2 mg/ml kynurenic acid (all from Sigma). After 30 min at 37° C., the tissue was transferred to the standard culture medium containing 0.7 mg/ml trypsin inhibitor (Roche Diagnostics, Laval, Quebec, Canada). Tissue pieces were mechanically dissociated with micropipettes. Cells were seeded at various densities into the standard culture medium, which also contained EGF (20 ng/ml human recombinant; Peprotech, Rocky Hill, N.J.). Cells were cultured for 7 days in vitro (DIV) and formed floating cell clusters (spheres). All the mice for culture experiments were killed by cervical dislocation.
To confirm that LH stimulates proliferation of neural stem cells, neural stem cell cultures were established as described in Materials and Methods. Primary spheres were dissociated and plated in the presence of EGF or EGF plus LH (30 nM) at limited density to allow formation of secondary spheres.

[2] = human use; intramuscular injection; cited from earlier work
[3] = tested on: proliferating cells in the forebrain SVZ; assay: Single intramuscular injection of hCG; BrdU positive cells in the forebrain SVZ; format: in vivo, CD-1 mice
Method: Six to eight week old female CD-1 mice received a single intramuscular injection of 5.0 USP units of recombinant hCG (Sigma Catalog Number C 6322) in a 0.05 ml volume (diluted in saline). Control mice received a single injection of saline alone. The mice then received 6 injections of BrdU (120 mg/kg), one every two hours, beginning two hours after the hCG injection. The mice were sacrificed thirty-minutes after the last BrdU injection, perfused transcardially with 4% paraformaldehyde; and the tissue was processed for cryosectioning. Brains were sectioned serially at 14 microns onto two sets of seven slides each, 12 sections on each slide. The number of BrdU positive cells was counted in the forebrain SVZ on one slide for each of the control and hCG injected animals. The following data are the average numbers of BrdU+ cells per section in the control (saline only) and hCG-injected mice, respectively.

[4] = tested on: doublecortin or NeuN positive cells in the SVZ or olfactory bulb; assay: Infusion by osmotic pump; neurogenesis by neuron marker (doublecortin or NeuN) positive cells; format: in vivo; settings: mice infused with hCG; Example 4, present tense
[5] = tested on: proliferating cells in the hippocampus; assay: Infusion by osmotic pump; proliferating cells in the hippocampus; format: in vivo, mice; settings: both gender; hCG infusion; Example 4, present tense
Method: as §1, §2
HCG has the same activity as LH.

LH: human LH derived from the pituitary; the National hormone and peptide program
proliferation in the SVZ as compared to the control group [1]: increases proliferation | neural stem cell proliferation in the SVZ and hippocampus ([1]; both females and males, summary statement): sufficient to induce neural stem cell proliferation | proliferation (number of BrdU positive cells) in the SVZ ([1]; female mice, 2-day or 6-day infusion of LH vs vehicle (FIGS. 7A and 7B)): increase proliferation significantly | proliferation (number of BrdU positive cells) in the SVZ ([1]; male mice, 2-day infusion of LH vs vehicle (FIG. 8)): increase proliferation significantly | effectiveness on neural stem cells isolated from female vs male mice (neural stem cells; LH 30 nM with EGF): more effective on the neural stem cells isolated from female mice | self-renewal of neural stem cells in culture (neural stem cells; LH 30 nM with EGF): capable of increasing self-renewal

Pregnyl: injectable, highly purified preparation of human chorionic gonadotropin obtained from the urine of pregnant women
maximal safe dose [2]: 10,000 USP units per day

Profasi: human chorionic gonadotropin (hCG), administered intramuscularly (Table 1); b178 calls it LH
maximal safe dose [2]: 10,000 USP units per day

hCG: recombinant hCG: choriogonadotropin alfa in Examples 4-5; Sigma Catalog Number C 6322 in Example 6
average number of BrdU+ cells per section in the forebrain SVZ ([3]; female CD-1 mice, single intramuscular injection of 5.0 USP units, n=4, p<0.02 vs saline 163±6): 206±13 BrdU+ cells per section | increase of proliferation in the forebrain SVZ ([3]; single low dose hCG injection vs saline): 26% | number of doublecortin or NeuN positive cells in the SVZ or olfactory bulb [4]: significantly higher | proliferation in the SVZ as compared to the control group [1]: increases proliferation | proliferation in the SVZ ([1]; male and female mice infused with recombinant hCG (choriogonadotropin alfa) vs vehicle, Example 4, present tense): significantly increases proliferation | proliferating cells in the hippocampus [5]: increase significantly | number of secondary spheres (neural stem cells; EGF plus choriogonadotropin alfa vs EGF, neural stem cells from male or female animals, Example 4, present tense): significantly increases the number of secondary spheres
